The values that follow come from patent US8921306B2, “Nociceptin mimetics” (The University of Queensland, priority 2010, dated 2014).

Chains of the proteins cited; added tags and fusions are not shown. Lines headed by an entry give the natural chain unless they say otherwise; changes in a name come on top.
UniProt P35377: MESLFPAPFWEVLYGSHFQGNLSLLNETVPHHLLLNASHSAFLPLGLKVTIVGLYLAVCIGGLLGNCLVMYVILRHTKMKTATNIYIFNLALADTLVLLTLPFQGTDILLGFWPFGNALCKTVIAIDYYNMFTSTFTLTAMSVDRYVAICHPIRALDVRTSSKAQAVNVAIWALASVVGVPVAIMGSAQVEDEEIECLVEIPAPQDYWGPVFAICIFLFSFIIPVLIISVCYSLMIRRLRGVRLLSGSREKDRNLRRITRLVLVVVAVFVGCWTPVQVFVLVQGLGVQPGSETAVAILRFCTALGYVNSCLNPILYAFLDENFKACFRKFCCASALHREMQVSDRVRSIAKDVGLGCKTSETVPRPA

SMILES strings stand for the structures. Read-outs that look alike come from different tables or passages of the source. A value given as a limit tells only on which side of the number the result lay.

Assay [1] has as its target T1, ORL-1 receptor (Mus musculus, UniProt P35377).
T1 construct: Neuro-2a cells were a gift from Professor John Mattick's laboratory; endogenous in cells; host or cells: Neuro-2a cells
Put plainly: Agonist functional activity assessed by ERK phosphorylation (pERK) in Neuro-2a cells. In kind it is cell-based. On the procedure:
Neuro-2a cells were a gift from Professor John Mattick's laboratory (Institute of Molecular Bioscience, University of Queensland) and were cultured in Gibco® DMEM (Invitrogen, CA, USA) supplemented with 10% FBS (Invitrogen, CA, USA), GIBCO® Pen/Strep (50 units/mL penicillin and 50 μg/mL streptomycin, Invitrogen, CA, USA) and GIBCO® NEAA (1× concentration, Invitrogen, CA, USA). Cells were split 1:10 every 3 days.
All cells were incubated at 37° C. and 5% CO2. When treated with pertussis toxin (PTX, catalogue number P7208, Sigma-Aldrich, NY, USA), cells were incubated with 500 ng/mL for 15 hours before use. Cells treated with MEK inhibitor PD98059 (catalogue number PHZ1164, Invitrogen, CA, USA) were preincubated with 50 μM for 1 hour before use.
Cells were placed in 12-well plates (NUNC™, NY, USA) and allowed to adhere for 24-36 h. […] For agonist assays, cells were challenged with compounds for 35 minutes and incubated at 37° C. (5% CO2).
Membranes were washed 3×10 minutes with TBE (with 0.1% Tween-20) and incubated with a primary antibody. For pERK, rabbit polyclonal ERK1+2 [pTpY185/187] […] Instead, rabbit IgG Phospho-ERK1 (T202/Y204)/ERK2 (T185/Y187) (1:2000, catalogue number AF1018, R&D Systems, MN, USA) was used. […] After multiple washes, the membranes were developed using ECL Detection Solution (Amersham Biosciences) and visualized using photographic film. Radiography was quantified using ImageJ (ImageI 1.36b, NIH).
pERK and total ERK concentrations were determined using a modified protocol for the AlphaScreen Surefire Assay. The modified protocol used half the volume of reagents recommended in the manufacturers' protocol with 2 μL of cell extract in both pERK and total ERK assays. The ratio of pERK to total ERK was determined using equation 1 and normalized to control. For agonist responses, the controls used were PBS (0%) and 1 μM nociceptin1-17-OH (100%). For antagonist responses, the controls used were PBS (100%) and 100 nM nociceptin1-17-NH2 (100%).
Concentration responses were analyzed using non-linear regression (variable slope) (Prism5, GraphPad Software) and data is presented as either EC50 (for agonists) or IC50 (antagonists).
Helix constrained and unconstrained peptides were pre-screened using the pERK assay at a single concentration.

Assay [2] concerns C57BL/6 mice. Put plainly: Anti-nociceptive activity in mice, hot plate front paw withdrawal latency. The class given is in vivo. The protocol:
A similar dose has been used before by others for nociceptin (NC, SEQ ID NO:1) itself in similar assays with some activity (EC50=200 pmol).
Mice (C57BL/6; n=45) were brought into the experimental room for at least 30 minutes prior to testing. They were then individually placed on an accredited hot plate heated to 53±0.54° C. and timed until any front paw withdrawal, licking or jumping behaviour was recorded (baseline response). Mice were not left on the hot plate for longer than 30 sec. […] Mice were then individually placed on the hot plate again at time points 1, 5, 15, 30, 45 and 60 min post injection. Each test was video monitored.
In a parallel experiment, agonist of SEQ ID NO:8 was co-administered with the helical antagonist of SEQ ID NO:13, where upon the increased paw withdrawal latency produced by agonist of SEQ ID NO:8 alone was abolished. This confirms that the helix constrained peptide of SEQ ID NO:13 is a potent antagonist of SEQ ID NO:8 in vivo.

The mark [3] stands for this setting: agonist pERK activity, Neuro-2a cells, read-out: EC50.
Where [4] appears, read: 200 pmol per front paw, hot plate.

For the compound `CC(C)C[C@H](NC(=O)[C@H](CCCCN)NC(=O)[C@H](CCCNC(=N)N)NC(=O)[C@H](C)NC(=O)[C@H](CO)NC(=O)[C@H](CCCCN)NC(=O)[C@H](CCCNC(=N)N)NC(=O)[C@H](C)NC(=O)CNC(=O)[C@@H](NC(=O)[C@H](Cc1ccc(F)cc1)NC(=O)CNC(=O)CNC(=O)[C@@H](N)Cc1ccccc1)[C@@H](C)O)C(=O)N[C@@H](CCCCN)C(=O)N[C@@H](CC(N)=O)C(=O)N[C@@H](CCC(N)=O)C(N)=O` [SEQ ID NO:3], the EC50 in assay [1] (setting [3]) turned out to be 0.36 nM. Also, the “log EC50” value in assay [1] (agonist pERK activity, printed as log EC50 with negative sign) was −9.44±0.12. For the same compound, in assay [1] (relative to unmodified or unconstrained analogue), the “improvement in agonist potency (fold)” value was found to be 30 fold. In addition, the “duration of anti-nociceptive effect” value in assay [2] (setting [4]) is on record as under 15 min.

Consider `C[C@@H](O)[C@H](NC(=O)[C@H](Cc1ccc(F)cc1)NC(=O)CNC(=O)CNC(=O)[C@@H](N)Cc1ccccc1)C(=O)NCC(=O)N[C@H]1CCCCNC(=O)C[C@@H](C(=O)N[C@@H](CCCNC(=N)N)C(=O)N[C@@H](CCCCN)C(=O)N[C@H]2CCCCNC(=O)C[C@@H](C(N)=O)NC(=O)[C@H](CCC(N)=O)NC(=O)[C@H](CC(N)=O)NC(=O)[C@H](CCCCN)NC2=O)NC(=O)[C@H](CO)NC(=O)[C@H](CCCCN)NC(=O)[C@H](CCCNC(=N)N)NC1=O` [SEQ ID NO:8, H-FGGF(4-F)TG[KRKSD]RK[KKNQD]-NH2], for which the EC50 in assay [1] (setting [3]) turned out to be 0.04 nM; in assay [1] (cells pretreated with 1.5 μM SEQ ID NO:11, read-out: EC50 after pretreatment with ORL-1 antagonist SEQ ID NO:11) it was 1 nM. Moreover, the “increase in paw withdrawal latency” value in assay [2] (200 pmol per front paw, after 5 minutes) was about 100%. Besides, the “duration of anti-nociceptive effect” value in assay [2] (setting [4]) is on record as “greater than 45 min”. In assay [2] (anti-nociceptive effect, intraplantar into front paws, hot plate 53° C., C57BL/6 mice), this compound displayed an ED50 of 70 pmol. Also, the ED100 in assay [2] (anti-nociceptive effect, intraplantar, hot plate) is 200 pmol.
